Test results as given in PubChem BioAssay AID463230 (The Scripps Research Institute Molecular Screening Center, 2010).
The list shows a part of the results, in another mix than the full data. Activity calls are given as the source filed them.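 How the source made its calls: active means mean inhibition of the triplicate above the hit cutoff set for the earlier primary screen (cut at about 25% in these data); inactive means the rest.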

The chains behind the UniProt entries cited, without tags or fusion partners. Where a name states a change or a piece, a line headed by the entry shows the natural chain unless it says otherwise.
UniProt Q13093: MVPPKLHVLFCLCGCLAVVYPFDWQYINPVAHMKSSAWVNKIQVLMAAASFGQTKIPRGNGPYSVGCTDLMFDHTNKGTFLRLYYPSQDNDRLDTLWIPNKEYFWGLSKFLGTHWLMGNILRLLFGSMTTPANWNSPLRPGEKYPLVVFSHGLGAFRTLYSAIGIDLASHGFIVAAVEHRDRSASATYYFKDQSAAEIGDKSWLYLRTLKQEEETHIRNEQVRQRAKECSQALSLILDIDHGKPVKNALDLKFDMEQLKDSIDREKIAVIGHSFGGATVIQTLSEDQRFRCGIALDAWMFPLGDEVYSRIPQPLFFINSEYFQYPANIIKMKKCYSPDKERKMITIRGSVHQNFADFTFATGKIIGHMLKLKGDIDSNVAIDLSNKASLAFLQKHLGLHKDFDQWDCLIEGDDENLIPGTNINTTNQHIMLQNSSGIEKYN

Target: Platelet-activating factor acetylhydrolase (Homo sapiens) (UniProt Q13093)
Test: pPAFAH (PLA2G7) enzyme inhibitors, confirmation, biochemical, fluorescence polarization, human (AID 463230);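 further: 0% = enzyme with DMSO and 100% = wells lacking pPAFAH enzyme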
Settings: recombinant pPAFAH, FP-Rh probe fluorescence polarization; at 3.39 µM; hits give high values

SMILES	inhibition
Nc1cccc2c([As](=O)(O)O)cccc12	inactive: 7.06%
